# Membrane permeability of cyclic peptides

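The data file gives no further conditions (lipid, pH, time, direction or concentration), and values from different papers need not be comparable. The list need not hold all peptides of the study. Entries at the database's floor value (log10 P of -10) are not listed.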

PAMPA measures passive passage through an artificial lipid membrane. P is given in units of 10^-6 cm/s (from log10 values with two decimals); larger means faster passage.

compound,PAMPA (10^-6 cm/s)
CCCC[C@@H]1NC(=O)[C@H](CC(C)C)N(C)C(=O)CN(Cc2ccccc2)C(=O)[C@H](Cc2ccc3ccccc3c2)NC(=O)CN(CC(C)C)C(=O)[C@H]2CCCN2C1=O,0.017
CCCC[C@@H]1NC(=O)[C@H](CC(C)C)N(C)C(=O)CN(Cc2ccccc2)C(=O)[C@H](Cc2ccccc2)NC(=O)CN(Cc2ccc3c(c2)OCO3)C(=O)[C@H]2CCCN2C1=O,0.031
CCCC[C@@H]1NC(=O)[C@H](CC(C)C)N(C)C(=O)CN(CCOc2ccccc2)C(=O)[C@H](CC(C)C)NC(=O)CN(CCC)C(=O)[C@H]2CCCN2C1=O,2.6
CCCC[C@@H]1NC(=O)[C@H](CC(C)C)N(C)C(=O)CN(CCCN2CCCC2=O)C(=O)[C@H](Cc2ccc3ccccc3c2)NC(=O)CN(Cc2ccc3c(c2)OCO3)C(=O)[C@H]2CCCN2C1=O,0.32
CCCC[C@@H]1NC(=O)[C@H](CC(C)C)N(C)C(=O)CN(CCOc2ccccc2)C(=O)[C@H](Cc2ccc3ccccc3c2)NC(=O)CN(Cc2cc(CC(C)C)on2)C(=O)[C@H]2CCCN2C1=O,0.0054
CCCC[C@@H]1NC(=O)[C@H](CC(C)C)N(C)C(=O)CN(CCCN2CCCC2=O)C(=O)[C@H](Cc2ccc3ccccc3c2)NC(=O)CN(CC(C)C)C(=O)[C@H]2CCCN2C1=O,2
CCCC[C@@H]1NC(=O)[C@H](CC(C)C)N(C)C(=O)CN(CC2CCOCC2)C(=O)[C@H](Cc2ccccc2)NC(=O)CN(CCCCc2ccccc2)C(=O)[C@H]2CCCN2C1=O,1.5
CCCC[C@@H]1NC(=O)[C@H](CC(C)C)N(C)C(=O)CN(CCOC)C(=O)[C@H](CC(C)C)NC(=O)CN(CCC)C(=O)[C@H]2CCCN2C1=O,6.9
CCCC[C@@H]1NC(=O)[C@H](CC(C)C)N(C)C(=O)CN(CCCc2ccccc2)C(=O)[C@H](C)NC(=O)CN(Cc2ccccc2Cn2cccn2)C(=O)[C@H]2CCCN2C1=O,8.3
CCCC[C@@H]1NC(=O)[C@H](CC(C)C)N(C)C(=O)CN(Cc2ccccc2)C(=O)[C@H](CC(C)C)NC(=O)CN(CC(C)C)C(=O)[C@H]2CCCN2C1=O,3.6
CCCC[C@@H]1NC(=O)[C@H](CC(C)C)N(C)C(=O)CN(CCOc2ccccc2)C(=O)[C@H](Cc2ccc3ccccc3c2)NC(=O)CN(Cc2ccc(Cl)cc2)C(=O)[C@H]2CCCN2C1=O,0.00039
CCCC[C@@H]1NC(=O)[C@H](CC(C)C)N(C)C(=O)CN(CC2CCCCC2)C(=O)[C@H](C)NC(=O)CN(CCC)C(=O)[C@H]2CCCN2C1=O,12
CCCC[C@@H]1NC(=O)[C@H](CC(C)C)N(C)C(=O)CN(CCCc2cnn(C)c2)C(=O)[C@H](Cc2ccc3ccccc3c2)NC(=O)CN(CC(C)C)C(=O)[C@H]2CCCN2C1=O,2.2
CCCC[C@@H]1NC(=O)[C@H](CC(C)C)N(C)C(=O)CN(CC2CCOCC2)C(=O)[C@H](Cc2ccc3ccccc3c2)NC(=O)CN(CC)C(=O)[C@H]2CCCN2C1=O,5.9
CCCC[C@@H]1NC(=O)[C@H](CC(C)C)N(C)C(=O)CN(CCCc2ccccc2)C(=O)[C@H](Cc2ccccc2)NC(=O)CN(CC)C(=O)[C@H]2CCCN2C1=O,4.2
CCCC[C@@H]1NC(=O)[C@H](CC(C)C)N(C)C(=O)CN(CCCc2ccccc2)C(=O)[C@H](CC(C)C)NC(=O)CN(Cc2ccccc2Cn2cccn2)C(=O)[C@H]2CCCN2C1=O,0.58
CCCC[C@@H]1NC(=O)[C@H](CC(C)C)N(C)C(=O)CN(CCOC)C(=O)[C@H](C)NC(=O)CN(Cc2ccc3c(c2)OCO3)C(=O)[C@H]2CCCN2C1=O,1.2
CCCC[C@@H]1NC(=O)[C@H](CC(C)C)N(C)C(=O)CN(CCCc2ccccc2)C(=O)[C@H](C)NC(=O)CN(CCC)C(=O)[C@H]2CCCN2C1=O,11

The 3 lowest values of PAMPA among the entries above:

compound	PAMPA (10^-6 cm/s)
CCCC[C@@H]1NC(=O)[C@H](CC(C)C)N(C)C(=O)CN(CCOc2ccccc2)C(=O)[C@H](Cc2ccc3ccccc3c2)NC(=O)CN(Cc2ccc(Cl)cc2)C(=O)[C@H]2CCCN2C1=O	0.00039
CCCC[C@@H]1NC(=O)[C@H](CC(C)C)N(C)C(=O)CN(CCOc2ccccc2)C(=O)[C@H](Cc2ccc3ccccc3c2)NC(=O)CN(Cc2cc(CC(C)C)on2)C(=O)[C@H]2CCCN2C1=O	0.0054
CCCC[C@@H]1NC(=O)[C@H](CC(C)C)N(C)C(=O)CN(Cc2ccccc2)C(=O)[C@H](Cc2ccc3ccccc3c2)NC(=O)CN(CC(C)C)C(=O)[C@H]2CCCN2C1=O	0.017

Source: CycPeptMPDB (Li et al. 2023), which took these values from Furukawa et al. 2016, doi:10.1021/acs.jmedchem.6b01246.